Measured values as given in paper PMC5845983.

The chains behind the UniProt entries cited, without tags or fusion partners. Residues count along the entry.
UniProt P17927, 42-2039: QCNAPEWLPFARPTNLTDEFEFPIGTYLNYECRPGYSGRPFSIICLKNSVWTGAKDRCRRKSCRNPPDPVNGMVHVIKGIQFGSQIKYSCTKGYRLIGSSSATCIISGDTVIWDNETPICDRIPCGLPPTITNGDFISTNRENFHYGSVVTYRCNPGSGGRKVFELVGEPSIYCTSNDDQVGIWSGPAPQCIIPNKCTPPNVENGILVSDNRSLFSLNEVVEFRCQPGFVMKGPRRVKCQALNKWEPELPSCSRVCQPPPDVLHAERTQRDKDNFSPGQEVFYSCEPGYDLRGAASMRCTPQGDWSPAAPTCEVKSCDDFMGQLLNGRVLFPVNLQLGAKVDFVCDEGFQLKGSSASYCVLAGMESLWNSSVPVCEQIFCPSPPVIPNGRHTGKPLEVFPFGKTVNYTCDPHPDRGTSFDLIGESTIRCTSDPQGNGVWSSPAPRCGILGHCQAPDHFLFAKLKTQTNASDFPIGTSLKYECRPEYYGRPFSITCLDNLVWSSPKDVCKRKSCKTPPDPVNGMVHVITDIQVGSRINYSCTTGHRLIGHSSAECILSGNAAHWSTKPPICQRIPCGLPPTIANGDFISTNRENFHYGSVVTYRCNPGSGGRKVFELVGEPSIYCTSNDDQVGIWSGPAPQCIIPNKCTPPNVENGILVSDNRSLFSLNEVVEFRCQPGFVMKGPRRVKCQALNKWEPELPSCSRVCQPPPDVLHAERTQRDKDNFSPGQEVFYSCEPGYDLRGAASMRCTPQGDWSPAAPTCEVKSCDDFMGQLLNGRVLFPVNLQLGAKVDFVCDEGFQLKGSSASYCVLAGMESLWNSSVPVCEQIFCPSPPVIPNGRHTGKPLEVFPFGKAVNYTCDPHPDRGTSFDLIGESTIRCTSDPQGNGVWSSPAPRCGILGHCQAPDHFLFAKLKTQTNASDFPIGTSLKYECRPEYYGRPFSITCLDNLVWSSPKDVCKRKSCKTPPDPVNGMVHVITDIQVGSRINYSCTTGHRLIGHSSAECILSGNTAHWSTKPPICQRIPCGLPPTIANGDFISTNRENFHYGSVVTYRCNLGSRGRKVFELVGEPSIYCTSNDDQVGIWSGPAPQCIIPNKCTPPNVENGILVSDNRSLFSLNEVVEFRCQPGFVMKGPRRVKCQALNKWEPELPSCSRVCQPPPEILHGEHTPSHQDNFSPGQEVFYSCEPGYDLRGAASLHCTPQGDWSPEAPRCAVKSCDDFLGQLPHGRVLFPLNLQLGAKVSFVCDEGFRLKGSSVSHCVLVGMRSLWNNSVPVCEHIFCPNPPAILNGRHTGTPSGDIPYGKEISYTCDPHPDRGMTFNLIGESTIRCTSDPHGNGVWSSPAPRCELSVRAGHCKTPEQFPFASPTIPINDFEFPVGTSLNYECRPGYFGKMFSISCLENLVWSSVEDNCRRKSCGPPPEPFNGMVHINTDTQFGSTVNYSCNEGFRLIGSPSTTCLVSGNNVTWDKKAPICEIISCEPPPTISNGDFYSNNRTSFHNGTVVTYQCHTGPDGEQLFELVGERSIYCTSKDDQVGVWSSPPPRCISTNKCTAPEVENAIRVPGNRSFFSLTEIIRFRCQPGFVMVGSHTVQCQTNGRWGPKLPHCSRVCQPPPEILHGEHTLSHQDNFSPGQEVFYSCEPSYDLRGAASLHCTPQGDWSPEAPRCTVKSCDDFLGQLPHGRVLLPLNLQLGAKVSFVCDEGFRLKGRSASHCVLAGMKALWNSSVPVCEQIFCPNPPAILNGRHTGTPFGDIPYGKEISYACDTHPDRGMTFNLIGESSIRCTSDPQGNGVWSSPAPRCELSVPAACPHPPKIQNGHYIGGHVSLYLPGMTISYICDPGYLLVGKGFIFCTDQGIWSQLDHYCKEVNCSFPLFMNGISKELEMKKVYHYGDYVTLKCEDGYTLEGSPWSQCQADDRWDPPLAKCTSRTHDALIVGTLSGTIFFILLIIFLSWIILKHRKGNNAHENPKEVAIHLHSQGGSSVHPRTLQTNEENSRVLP
UniProt P02745, 23-245: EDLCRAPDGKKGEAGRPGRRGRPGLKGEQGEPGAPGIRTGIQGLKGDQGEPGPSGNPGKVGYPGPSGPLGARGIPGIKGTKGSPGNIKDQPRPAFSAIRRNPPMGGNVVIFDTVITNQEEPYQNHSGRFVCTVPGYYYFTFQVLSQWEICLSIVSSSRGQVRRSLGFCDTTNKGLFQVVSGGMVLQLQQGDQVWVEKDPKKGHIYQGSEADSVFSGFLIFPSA
C1q, UniProt P02746, 28-253: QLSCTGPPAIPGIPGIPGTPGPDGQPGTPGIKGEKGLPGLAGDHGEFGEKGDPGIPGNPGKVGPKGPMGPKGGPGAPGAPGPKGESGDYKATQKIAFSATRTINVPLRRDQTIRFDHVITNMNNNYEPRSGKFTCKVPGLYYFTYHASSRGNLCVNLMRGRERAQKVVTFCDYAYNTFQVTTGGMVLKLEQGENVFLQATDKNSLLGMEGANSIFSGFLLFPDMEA
C1q, UniProt P02747, 29-245: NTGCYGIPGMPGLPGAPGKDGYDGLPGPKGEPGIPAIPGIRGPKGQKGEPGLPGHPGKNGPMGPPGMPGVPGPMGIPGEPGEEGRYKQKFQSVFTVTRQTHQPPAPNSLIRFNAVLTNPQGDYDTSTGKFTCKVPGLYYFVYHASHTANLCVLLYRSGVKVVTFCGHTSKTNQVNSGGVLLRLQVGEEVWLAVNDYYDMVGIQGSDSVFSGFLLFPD

Key:
[1] = target: CR1 bimodular fragment CCP25-26 (human); assay: ELISA; solid-phase binding assay; plates coated with 3.4 pmol of each CR1 variant; C1q 10 µg/ml in PBS-T, 90 min, room temperature; detected with anti-C1q rabbit polyclonal and HRP anti-rabbit antibody
[2] = target: Recombinant soluble human CR1 (sCR1) (human) (UniProt P17927); assay: SPR; BIAcore 3000, multiple cycle; CR1 protein amine-coupled on CM5 (sCR1 9,500 RU, CCP22-30 1,500 RU, CCP24-25 1,000 RU); C1q injected at 20 µl/min in 50 mM TEA, 150 mM NaCl, 1 mM CaCl2, 0.005% surfactant P20, pH 7.4; global 1:1 Langmuir fit; apparent KD = kd/ka
[3] = target: CR1 CCP22-30 His6 fragment (insect cells) (human); assay: as above

- C1q binding (%) [1]: 24%
- Kd [2]: 0.49 nM
- Kd [3]: 0.26 nM
Substance: C1q (from UniProt P02745 23-245; P02746 28-253; P02747 29-245) (complex)
